# Target: GlyRα1^Q177Eβ (UniProt P48167+Q64018, Q205E)
# Amino acid sequences for entries named in this document (tags omitted). A change or cut given only in a name is not applied to a line headed by its entry. Residues count along the entry.
# UniProt P48167, 23-497: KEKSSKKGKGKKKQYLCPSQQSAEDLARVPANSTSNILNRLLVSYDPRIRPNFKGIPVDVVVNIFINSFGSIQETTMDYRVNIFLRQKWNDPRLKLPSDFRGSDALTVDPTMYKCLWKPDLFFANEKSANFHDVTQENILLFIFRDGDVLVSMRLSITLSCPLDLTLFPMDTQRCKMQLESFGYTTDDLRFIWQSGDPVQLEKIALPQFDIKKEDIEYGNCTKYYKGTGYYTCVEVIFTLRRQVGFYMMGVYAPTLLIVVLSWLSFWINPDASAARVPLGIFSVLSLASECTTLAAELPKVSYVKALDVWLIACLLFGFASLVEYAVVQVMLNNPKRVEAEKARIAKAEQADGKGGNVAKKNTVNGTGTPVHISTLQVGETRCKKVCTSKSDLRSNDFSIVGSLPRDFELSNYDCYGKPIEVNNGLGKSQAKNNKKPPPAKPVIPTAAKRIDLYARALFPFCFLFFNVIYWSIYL
# UniProt Q64018, 29-457 Q205E: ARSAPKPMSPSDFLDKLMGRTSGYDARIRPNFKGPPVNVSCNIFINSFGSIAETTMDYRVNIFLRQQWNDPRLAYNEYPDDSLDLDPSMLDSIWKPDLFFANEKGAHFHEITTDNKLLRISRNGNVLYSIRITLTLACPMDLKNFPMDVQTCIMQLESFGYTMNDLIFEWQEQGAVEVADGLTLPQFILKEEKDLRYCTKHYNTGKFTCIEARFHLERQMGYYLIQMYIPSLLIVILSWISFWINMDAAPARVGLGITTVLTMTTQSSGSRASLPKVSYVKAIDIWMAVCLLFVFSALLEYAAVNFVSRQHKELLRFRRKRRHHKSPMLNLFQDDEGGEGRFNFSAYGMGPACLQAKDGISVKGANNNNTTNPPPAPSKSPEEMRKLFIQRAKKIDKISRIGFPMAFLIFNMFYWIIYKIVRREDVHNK
# Experiment: whole-cell patch clamp recordings of transfected HEK293 cells
# Conditions: read-out: EC50 glycine; HEK293, α1:β 1:2, whole-cell currents, 1–3000 μM glycine
smiles,measurement,value
NCC(=O)O [glycine],EC50,109 ± 7 µM

# Reference: publication PMC5640878, “The GlyR Extracellular β8–β9 Loop – A Functional Determinant of Agonist Potency” (Frontiers in Molecular Neuroscience, 2017)
